Results published in patent US12053441B2, “Formulations for improving the delivery of hydrophobic agents” (THE ROYAL INSTITUTION FOR THE ADVANCEMENT OF LEARNING / …, priority 2018, dated 2024).

System: UQ-deficient cells (Mclk1 KO or DKO cells)
Assay: Screening for compounds that increase survival or respiration of UQ-deficient cells

With `C[C@@H]1C[C@H]2[C@@H]3C[C@H](F)C4=CC(=O)C=C[C@]4(C)[C@@]3(F)[C@@H](O)C[C@]2(C)[C@@]1(O)C(=O)CO` [flumethasone] the “identified by the screening methods as useful for UQ deficiency” value was “identified”.
